{
  "sequences": {"note": "Protein sequences, listed by entry. Tags and fused reporters are not part of them. Lines headed by an entry give the natural chain unless they say otherwise; changes in a name come on top.", "UniProt P14780": "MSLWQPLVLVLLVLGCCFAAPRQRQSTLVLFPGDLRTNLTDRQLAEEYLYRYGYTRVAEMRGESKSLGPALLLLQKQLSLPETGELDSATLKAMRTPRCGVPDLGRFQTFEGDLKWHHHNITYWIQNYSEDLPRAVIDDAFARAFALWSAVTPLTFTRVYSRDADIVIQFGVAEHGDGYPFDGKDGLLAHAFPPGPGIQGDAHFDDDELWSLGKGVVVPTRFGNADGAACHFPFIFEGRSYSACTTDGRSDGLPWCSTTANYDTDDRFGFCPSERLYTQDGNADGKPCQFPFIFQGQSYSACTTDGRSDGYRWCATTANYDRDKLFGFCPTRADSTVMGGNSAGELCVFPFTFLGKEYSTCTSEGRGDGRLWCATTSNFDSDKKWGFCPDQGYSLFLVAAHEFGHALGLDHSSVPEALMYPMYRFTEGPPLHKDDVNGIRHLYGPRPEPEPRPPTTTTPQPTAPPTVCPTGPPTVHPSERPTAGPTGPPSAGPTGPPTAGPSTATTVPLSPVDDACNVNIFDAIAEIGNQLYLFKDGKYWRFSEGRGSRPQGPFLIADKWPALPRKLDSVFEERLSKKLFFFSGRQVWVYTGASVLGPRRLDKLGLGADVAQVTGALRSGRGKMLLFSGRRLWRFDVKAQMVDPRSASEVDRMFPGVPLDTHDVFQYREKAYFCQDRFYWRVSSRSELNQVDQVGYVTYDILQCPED"},
  "source": "ChEMBL document CHEMBL5113513",
  "about": "“Selective Inhibitors of Medium-Size S1' Pocket Matrix Metalloproteinases: A Stepping Stone of Future Drug Discovery” (J Med Chem, 2022)",
  "key": {"Interstitial collagenase": {"biological_target": "T1, Interstitial collagenase (Homo sapiens, UniProt P03956)", "T1 sequence (P03956 whole entry)": "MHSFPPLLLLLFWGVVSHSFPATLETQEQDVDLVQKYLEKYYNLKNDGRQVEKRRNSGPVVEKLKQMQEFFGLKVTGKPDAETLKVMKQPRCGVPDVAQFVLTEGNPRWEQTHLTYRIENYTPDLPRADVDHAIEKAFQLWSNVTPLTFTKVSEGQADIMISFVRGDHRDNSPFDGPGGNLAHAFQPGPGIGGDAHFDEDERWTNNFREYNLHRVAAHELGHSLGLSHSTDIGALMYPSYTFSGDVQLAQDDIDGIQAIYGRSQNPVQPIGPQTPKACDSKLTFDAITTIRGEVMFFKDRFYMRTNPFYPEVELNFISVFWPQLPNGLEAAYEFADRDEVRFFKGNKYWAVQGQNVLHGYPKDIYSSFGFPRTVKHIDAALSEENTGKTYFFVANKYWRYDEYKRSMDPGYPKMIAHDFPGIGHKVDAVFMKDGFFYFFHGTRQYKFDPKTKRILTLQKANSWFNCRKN", "experiment": "Inhibition of MMP-1 (unknown origin)"}, "Collagenase 3": {"biological_target": "Collagenase 3 (Homo sapiens, UniProt P45452)"}, "[1]": {"biological_target": "Matrix metalloproteinase-9 (Homo sapiens, UniProt P14780)", "experiment": "Inhibition of MMP-9 (unknown origin)"}},
  "data": [
    {"smiles": "O=C(NO)C1(S(=O)(=O)c2ccc(Oc3ccc(Cl)cc3)cc2)CCOCC1", "values": [
      {"measurement": "Ki", "setting": "Interstitial collagenase", "value": 590, "unit": "nM"},
      {"measurement": "Ki", "setting": "Collagenase 3", "value": 0.52, "unit": "nM"}
    ]},
    {"smiles": "CC(=O)Nc1ccc(Oc2ccc(S(=O)(=O)CC3CS3)cc2)cc1", "note": "(stereo not drawn)", "values": [
      {"measurement": "Ki", "setting": "[1]", "value": 34, "unit": "µM"}
    ]}
  ]
}
